Earlier results in patent publication US9381164B2, “Silk nanospheres and microspheres and methods of making same” (TRUSTEES OF TUFTS COLLEGE, priority 2009, dated 2016).

Conditions: Porous sponge, Drug absorbed; cited from earlier work

## BMP-2: bone morphogenetic protein loaded in silk delivery systems
  In vitro drug release: >7 days
